Columns and labels:
[1] = target: T1, beta-catenin-B-cell lymphoma 9 protein complex (Homo sapiens) (UniProt P35222+O00512); assay: Inhibition of protein interaction between beta-catenin /BCL9 in human SW480 cells assessed as reduction in Wnt target genes by measuring change in LEF1 mRNA expression at 25 uM incubated for 24 hrs by qPCR analysis relative to control; assay type: cell-based
[2] = target: T1, beta-catenin-B-cell lymphoma 9 protein complex (Homo sapiens); assay: Inhibition of protein interaction between beta-catenin /BCL9 in human SW480 cells assessed as reduction in Wnt target genes by measuring change in Axin2 mRNA expression at 50 uM incubated for 24 hrs by qPCR analysis relative to control; assay type: cell-based
[3] = target: T1, beta-catenin-B-cell lymphoma 9 protein complex (Homo sapiens); assay: Inhibition of protein interaction between beta-catenin /BCL9 in human SW480 cells assessed as reduction in Wnt target genes by measuring change in cyclin D1 mRNA expression at 100 uM incubated for 24 hrs by qPCR analysis relative to control; assay type: cell-based
[4] = target: T1, beta-catenin-B-cell lymphoma 9 protein complex (Homo sapiens); assay: Inhibition of protein interaction between beta-catenin /BCL9 in human SW480 cells assessed as reduction in Wnt target genes by measuring change in cyclin D1 mRNA expression at 25 uM incubated for 24 hrs by qPCR analysis relative to control; assay type: cell-based
[5] = target: T1, beta-catenin-B-cell lymphoma 9 protein complex (Homo sapiens); assay: Inhibition of protein interaction between beta-catenin /BCL9 in human SW480 cells assessed as reduction in Wnt target genes by measuring change in LEF1 mRNA expression at 100 uM incubated for 24 hrs by qPCR analysis relative to control; assay type: cell-based
[6] = target: T1, beta-catenin-B-cell lymphoma 9 protein complex (Homo sapiens); assay: Inhibition of protein interaction between beta-catenin /BCL9 in human SW480 cells assessed as reduction in Wnt target genes by measuring change in Axin2 mRNA expression at 25 uM incubated for 24 hrs by qPCR analysis relative to control; assay type: cell-based
[7] = target: T1, beta-catenin-B-cell lymphoma 9 protein complex (Homo sapiens); assay: Inhibition of protein interaction between beta-catenin /BCL9 in human SW480 cells assessed as reduction in Wnt target genes by measuring change in Axin2 mRNA expression at 100 uM incubated for 24 hrs by qPCR analysis relative to control; assay type: cell-based
[8] = target: T1, beta-catenin-B-cell lymphoma 9 protein complex (Homo sapiens); assay: Inhibition of protein interaction between beta-catenin /BCL9 in human SW480 cells assessed as reduction in Wnt target genes by measuring change in cyclin D1 mRNA expression at 50 uM incubated for 24 hrs by qPCR analysis relative to control; assay type: cell-based
[9] = target: T1, beta-catenin-B-cell lymphoma 9 protein complex (Homo sapiens); assay: Inhibition of protein interaction between beta-catenin /BCL9 in human SW480 cells assessed as reduction in Wnt target genes by measuring change in LEF1 mRNA expression at 50 uM incubated for 24 hrs by qPCR analysis relative to control; assay type: cell-based
Homo sapiens = species on record: Homo sapiens; assay: Selectivity index, ratio of Ki for inhibition of protein interaction between beta-catenin (unknown origin)/human E-cadherin to Ki for inhibition of protein interaction between beta-catenin (unknown origin)/human BCL9
[10] = target: T1, beta-catenin-B-cell lymphoma 9 protein complex (Homo sapiens); assay: Inhibition of protein interaction between beta-catenin /BCL9 in human SW480 cells assessed as reduction in Wnt target genes by measuring change in LEF1 mRNA expression at 2 uM incubated for 24 hrs by qPCR analysis relative to control; assay type: cell-based
[11] = target: T1, beta-catenin-B-cell lymphoma 9 protein complex (Homo sapiens); assay: Inhibition of protein interaction between beta-catenin /BCL9 in human SW480 cells assessed as reduction in Wnt target genes by measuring change in cyclin D1 mRNA expression at 1 uM incubated for 24 hrs by qPCR analysis relative to control; assay type: cell-based
[12] = target: T1, beta-catenin-B-cell lymphoma 9 protein complex (Homo sapiens); assay: Inhibition of protein interaction between beta-catenin /BCL9 in human SW480 cells assessed as reduction in Wnt target genes by measuring change in LEF1 mRNA expression at 1 uM incubated for 24 hrs by qPCR analysis relative to control; assay type: cell-based
[13] = target: T1, beta-catenin-B-cell lymphoma 9 protein complex (Homo sapiens); assay: Inhibition of protein interaction between beta-catenin /BCL9 in human SW480 cells assessed as reduction in Wnt target genes by measuring change in Axin2 mRNA expression at 2 uM incubated for 24 hrs by qPCR analysis relative to control; assay type: cell-based
[14] = target: T1, beta-catenin-B-cell lymphoma 9 protein complex (Homo sapiens); assay: Inhibition of protein interaction between beta-catenin /BCL9 in human SW480 cells assessed as reduction in Wnt target genes by measuring change in Axin2 mRNA expression at 4 uM incubated for 24 hrs by qPCR analysis relative to control; assay type: cell-based
[15] = target: T1, beta-catenin-B-cell lymphoma 9 protein complex (Homo sapiens); assay: Inhibition of protein interaction between beta-catenin /BCL9 in human SW480 cells assessed as reduction in Wnt target genes by measuring change in Axin2 mRNA expression at 1 uM incubated for 24 hrs by qPCR analysis relative to control; assay type: cell-based
[16] = target: T1, beta-catenin-B-cell lymphoma 9 protein complex (Homo sapiens); assay: Inhibition of protein interaction between beta-catenin /BCL9 in human SW480 cells assessed as reduction in Wnt target genes by measuring change in LEF1 mRNA expression at 4 uM incubated for 24 hrs by qPCR analysis relative to control; assay type: cell-based
[17] = target: T1, beta-catenin-B-cell lymphoma 9 protein complex (Homo sapiens); assay: Inhibition of protein interaction between beta-catenin /BCL9 in human SW480 cells assessed as reduction in Wnt target genes by measuring change in cyclin D1 mRNA expression at 2 uM incubated for 24 hrs by qPCR analysis relative to control; assay type: cell-based
[18] = target: T1, beta-catenin-B-cell lymphoma 9 protein complex (Homo sapiens); assay: Inhibition of protein interaction between beta-catenin /BCL9 in human SW480 cells assessed as reduction in Wnt target genes by measuring change in cyclin D1 mRNA expression at 4 uM incubated for 24 hrs by qPCR analysis relative to control; assay type: cell-based
[19] = target: T1, beta-catenin-B-cell lymphoma 9 protein complex (Homo sapiens); assay: Inhibition of protein interaction between beta-catenin /BCL9 in human SW480 cells assessed as reduction in Wnt target genes by measuring change in Axin2 mRNA expression at 5 uM incubated for 24 hrs by qPCR analysis relative to control; assay type: cell-based
[20] = target: T1, beta-catenin-B-cell lymphoma 9 protein complex (Homo sapiens); assay: Inhibition of protein interaction between beta-catenin /BCL9 in human SW480 cells assessed as reduction in Wnt target genes by measuring change in Axin2 mRNA expression at 10 uM incubated for 24 hrs by qPCR analysis relative to control; assay type: cell-based
[21] = target: T1, beta-catenin-B-cell lymphoma 9 protein complex (Homo sapiens); assay: Inhibition of protein interaction between beta-catenin /BCL9 in human SW480 cells assessed as reduction in Wnt target genes by measuring change in Axin2 mRNA expression at 20 uM incubated for 24 hrs by qPCR analysis relative to control; assay type: cell-based
[22] = target: T1, beta-catenin-B-cell lymphoma 9 protein complex (Homo sapiens); assay: Inhibition of protein interaction between beta-catenin /BCL9 in human SW480 cells assessed as reduction in Wnt target genes by measuring change in cyclin D1 mRNA expression at 8 uM incubated for 24 hrs by qPCR analysis relative to control; assay type: cell-based
[23] = target: T1, beta-catenin-B-cell lymphoma 9 protein complex (Homo sapiens); assay: Inhibition of protein interaction between beta-catenin /BCL9 in human SW480 cells assessed as reduction in Wnt target genes by measuring change in LEF1 mRNA expression at 8 uM incubated for 24 hrs by qPCR analysis relative to control; assay type: cell-based
[24] = target: T1, beta-catenin-B-cell lymphoma 9 protein complex (Homo sapiens); assay: Inhibition of protein interaction between beta-catenin /BCL9 in human SW480 cells assessed as reduction in Wnt target genes by measuring change in Axin2 mRNA expression at 8 uM incubated for 24 hrs by qPCR analysis relative to control; assay type: cell-based

Sequences of proteins named here, by UniProt entry; tags and fusion partners are left off. A change or cut given only in a name is not applied to a line headed by its entry.
UniProt P35222: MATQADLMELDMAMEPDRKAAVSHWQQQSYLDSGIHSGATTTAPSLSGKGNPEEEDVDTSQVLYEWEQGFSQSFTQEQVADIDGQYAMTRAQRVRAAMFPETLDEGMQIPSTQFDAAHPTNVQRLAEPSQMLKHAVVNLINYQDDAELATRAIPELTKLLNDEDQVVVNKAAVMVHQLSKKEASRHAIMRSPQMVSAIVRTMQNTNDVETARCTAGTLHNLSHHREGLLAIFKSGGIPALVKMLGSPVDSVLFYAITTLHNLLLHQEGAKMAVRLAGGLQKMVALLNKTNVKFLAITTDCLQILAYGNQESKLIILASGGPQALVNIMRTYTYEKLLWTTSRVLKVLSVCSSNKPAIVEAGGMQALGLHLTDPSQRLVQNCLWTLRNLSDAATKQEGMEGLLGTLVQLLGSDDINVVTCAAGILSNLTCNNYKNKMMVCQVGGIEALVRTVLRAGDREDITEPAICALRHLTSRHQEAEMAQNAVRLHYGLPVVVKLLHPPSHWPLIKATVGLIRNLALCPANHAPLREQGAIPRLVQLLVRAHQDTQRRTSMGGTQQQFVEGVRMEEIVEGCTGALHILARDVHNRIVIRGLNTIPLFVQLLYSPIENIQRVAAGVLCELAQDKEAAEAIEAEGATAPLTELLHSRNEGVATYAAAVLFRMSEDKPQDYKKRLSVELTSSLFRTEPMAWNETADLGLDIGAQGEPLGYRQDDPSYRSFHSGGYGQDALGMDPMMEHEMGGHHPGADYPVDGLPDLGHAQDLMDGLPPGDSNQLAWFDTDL
UniProt O00512: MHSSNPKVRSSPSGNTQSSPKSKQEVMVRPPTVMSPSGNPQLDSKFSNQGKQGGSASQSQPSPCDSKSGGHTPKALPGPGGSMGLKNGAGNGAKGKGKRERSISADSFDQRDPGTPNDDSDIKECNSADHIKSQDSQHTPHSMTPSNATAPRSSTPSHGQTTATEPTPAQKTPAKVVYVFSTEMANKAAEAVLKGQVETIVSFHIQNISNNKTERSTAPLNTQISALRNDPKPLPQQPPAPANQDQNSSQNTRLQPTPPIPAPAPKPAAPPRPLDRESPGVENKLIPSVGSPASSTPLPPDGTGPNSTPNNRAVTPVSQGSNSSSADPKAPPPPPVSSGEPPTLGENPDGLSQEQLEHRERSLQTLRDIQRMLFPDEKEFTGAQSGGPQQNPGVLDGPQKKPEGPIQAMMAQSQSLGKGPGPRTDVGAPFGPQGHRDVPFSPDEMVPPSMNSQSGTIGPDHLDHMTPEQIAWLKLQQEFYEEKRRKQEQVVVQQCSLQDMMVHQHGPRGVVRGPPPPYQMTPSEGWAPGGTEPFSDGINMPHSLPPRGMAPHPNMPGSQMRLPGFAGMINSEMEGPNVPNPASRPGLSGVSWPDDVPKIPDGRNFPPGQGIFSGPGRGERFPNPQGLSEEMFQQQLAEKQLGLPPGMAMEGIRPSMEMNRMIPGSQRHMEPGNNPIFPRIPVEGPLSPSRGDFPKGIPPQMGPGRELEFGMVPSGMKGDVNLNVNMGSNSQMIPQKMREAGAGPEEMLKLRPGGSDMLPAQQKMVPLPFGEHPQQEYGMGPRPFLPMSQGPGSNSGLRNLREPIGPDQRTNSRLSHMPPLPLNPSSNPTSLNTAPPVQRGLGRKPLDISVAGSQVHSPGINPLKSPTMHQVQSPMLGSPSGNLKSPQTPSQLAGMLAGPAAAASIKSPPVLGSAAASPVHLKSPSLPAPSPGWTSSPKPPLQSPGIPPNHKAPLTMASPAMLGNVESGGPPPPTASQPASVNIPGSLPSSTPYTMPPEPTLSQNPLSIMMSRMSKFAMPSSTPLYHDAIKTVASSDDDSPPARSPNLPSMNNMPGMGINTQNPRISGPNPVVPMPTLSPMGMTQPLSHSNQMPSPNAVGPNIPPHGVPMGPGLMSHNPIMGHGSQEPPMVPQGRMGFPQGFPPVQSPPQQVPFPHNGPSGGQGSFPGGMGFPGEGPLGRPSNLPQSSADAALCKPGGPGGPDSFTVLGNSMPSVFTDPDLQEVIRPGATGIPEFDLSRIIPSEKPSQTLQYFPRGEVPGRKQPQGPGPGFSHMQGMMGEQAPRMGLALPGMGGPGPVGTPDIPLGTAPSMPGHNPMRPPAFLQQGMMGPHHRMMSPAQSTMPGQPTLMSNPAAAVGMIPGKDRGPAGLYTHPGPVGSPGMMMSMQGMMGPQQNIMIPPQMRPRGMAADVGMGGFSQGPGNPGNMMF

Q: With `Cl.Cl.O=C(Nc1ccc(O[C@@H]2CCNC2)c(-c2cccc(-c3nn[nH]n3)c2)c1)c1ccc(O[C@H]2CCNC2)c(-c2ccc(F)c(F)c2)c1` as the molecule, how does the fold change (FC) [1] read?
A: The fold change (FC) was 0.829.

Q: What about the fold change (FC) [2] of the same molecule?
A: Its fold change (FC) is 0.441.

Q: What about the fold change (FC) [3] of the same molecule?
A: The fold change (FC) was 0.326.

Q: And the fold change (FC) [4]?
A: Its fold change (FC) is 0.563.

Q: And the fold change (FC) [5]?
A: The fold change (FC) was 0.42.

Q: And the fold change (FC) [6]?
A: The fold change (FC) was 0.555.

Q: What about the fold change (FC) [7] of the same molecule?
A: The fold change (FC) was 0.384.

Q: And the fold change (FC) [8]?
A: The fold change (FC) was 0.444.

Q: What about the fold change (FC) [9] of the same molecule?
A: The fold change (FC) was 0.586.

Q: And the Ratio Ki (Homo sapiens)?
A: The Ratio Ki was > 1900.

Q: For `Cl.Cl.O=C(Nc1ccc(O[C@H]2CCNC2)c(-c2ccc(F)cc2)c1)c1ccc(O[C@H]2CCNC2)c(-c2ccc3ccsc3c2)c1`, which fold change (FC) [10] is on record?
A: Its fold change (FC) is 0.585.

Q: What about the fold change (FC) [11] of the same molecule?
A: Its fold change (FC) is 0.674.

Q: And the fold change (FC) [12]?
A: Its fold change (FC) is 0.707.

Q: And the fold change (FC) [13]?
A: The fold change (FC) was 0.871.

Q: What about the fold change (FC) [14] of the same molecule?
A: The fold change (FC) was 0.532.

Q: What about the fold change (FC) [15] of the same molecule?
A: The fold change (FC) was 0.95.

Q: And the fold change (FC) [16]?
A: Its fold change (FC) is 0.395.

Q: And the fold change (FC) [17]?
A: The fold change (FC) was 0.528.

Q: What about the fold change (FC) [18] of the same molecule?
A: Its fold change (FC) is 0.353.

Q: With `Cl.Cl.Fc1ccc(-c2cc(-c3ccc4cc(O[C@H]5CCNC5)c(-c5ccc(F)c(F)c5)cc4n3)ccc2O[C@H]2CCNC2)cc1` as the molecule, how does the fold change (FC) [19] read?
A: Its fold change (FC) is 0.959.

Q: What about the fold change (FC) [20] of the same molecule?
A: Its fold change (FC) is 0.835.

Q: And the fold change (FC) [21]?
A: Its fold change (FC) is 0.599.

Q: Which Ratio Ki (Homo sapiens) does the source give for `Cl.Cl.O=C(Nc1ccc(O[C@@H]2CCNC2)c(-c2cccc(-c3nn[nH]n3)c2)c1)c1ccc(O[C@H]2CCNC2)c(-c2ccc3ccsc3c2)c1` here?
A: The Ratio Ki was > 570.

Q: For `Cc1cc(F)ccc1-c1cc(NC(=O)c2ccc(O[C@H]3CCNC3)c(-c3ccc(F)c(F)c3)c2)ccc1O[C@H]1CCNC1.Cl.Cl`, which fold change (FC) [10] is on record?
A: Its fold change (FC) is 0.406.

Q: What about the fold change (FC) [13] of the same molecule?
A: The fold change (FC) was 0.417.

Q: What about the fold change (FC) [14] of the same molecule?
A: Its fold change (FC) is 0.312.

Q: And the fold change (FC) [22]?
A: Its fold change (FC) is 0.212.

Q: What about the fold change (FC) [23] of the same molecule?
A: Its fold change (FC) is 0.303.

Q: And the fold change (FC) [24]?
A: The fold change (FC) was 0.2.

Q: And the fold change (FC) [16]?
A: The fold change (FC) was 0.395.

Q: And the fold change (FC) [17]?
A: Its fold change (FC) is 0.953.

Q: And the fold change (FC) [18]?
A: Its fold change (FC) is 0.257.
